Counter-ions that a name gives are not always drawn. Like-named read-outs stand apart in the source and are kept apart here.
Legend:
in vivo [1] = conditions: rat, rats
in vivo [2] = conditions: mouse, mice
[3] = assay type: in vivo, male Wistar rats; conditions: four days
Procedure: Male Wistar rats weighing 180 g were randomized into groups of 10. Three doses of each compound were administered. One group received the vehicle alone (10 ml/kg b.w.). Each dose was given orally for four days consecutively and the rats were sacrificed on the fifth day for necropsy. The ulcerogenic effect was evaluated by the following scale:
(1) each haemorrhagic point at least 1 mm in diameter was scored as 1 lesion,
(2) haemorrhagic points less than 1 mm in diameter were scored in the following manner:
(c) 20 to 29=three lesions
(2) gastric mucosal irritation without haemorrhage: 1
(3) haemorrhagic points less than 1 mm in diameter: 2
(4) haemorrhagic points between 1 and 3 mm in diameter: 3
(5) haemorrhagic points larger than 3 mm in diameter: 4
By means of this scale it was possible to obtain the gastric damage index: [formula]

Row | Structure (SMILES) | LD50 (in vivo [1]; ip) [mg/kg] | LD50 (in vivo [1]; po, per os) [mg/kg] | LD50 (in vivo [2]; ip) [mg/kg] | LD50 (in vivo [2]; po, per os) [mg/kg] | % incidence / 10 ([3]; 50 mg/kg orally) | % incidence / 10 ([3]; 100 mg/kg orally) | % incidence / 10 ([3]; 200 mg/kg orally)
1 | Cc1ccc(C(=O)c2ccc(CC(=O)O)n2C)cc1 [Tolmetin] | 612 | 827 | 550 | 802 | – | – | –
2 | Cc1ccc(C(=O)c2ccc(CC(=O)O)n2C)cc1 [Tolmetin Na.2H2 O, 1-mehtyl-5-p-toluoyl-2-acetic acid sodium salt dihydrate] | – | – | – | – | 7 | 10 | 10
